We go through one compound from patent publication US6180599A, “Pharmaceutical composition, containing medium-chain fatty acids as active ingredients, for dental caries and periodontal disease” (priority 1997, dated 2001).

The structures appear in SMILES notation.

In assay [1] the test system is S. mutans BHT. Put plainly: Inhibitory effect on extracellular polysaccharide synthesis, standard strain. The following applies: 1 mM; 2% glucose; 24-48 hours; control 31.5 ± 3.7. In kind it is cell-based, Streptococcus mutans. On the procedure: (§1) In order to identify the effect by which medium-chain fatty acids inhibit plaque matrix formation, inhibitory effect and concentration of extracellular polysaccharide synthesis were determined in seven kinds of standard cariogenic plaque bacteria. Also, the inhibitory effect of extracellular polysaccharide synthesis for 20 kinds of cariogenic plaque bacteria, separated from the human oral cavity, was measured. Liquid culture media used were: Todd-Hewitt broth of Streptococcus, Lactobacilli MRS broth of Lactobacillus and Brain Heart Infusion broth of Actinomyces. 0.1 ml of bacterial (or cell) suspension (OD600 =0.5) of each bacteria was inoculated to 5.9 ml of culture media containing 1 mM of medium-chain fatty acids and 2% of glucose, and was cultured for 24^~ 48 hours in 10% CO2 incubator. After culturing, the resultant was centrifuged to precipitate at 5,000×g for 15 minutes, then soluble extracellular polysaccharide was separated and purified from the supernatant and insoluble extracellular polysaccharide from the cell pellet, and then these were quantified.

For assay [2], the system named is A. viscosus ATCC 15987. The description is as above. In kind it is cell-based. The following applies: Actinomyces viscosus, ATCC15987; 1 mM; an increase vs control, not an inhibition; read-out: Inhibitory rate, soluble (increase). On the procedure:
as §1

Regarding `CCCCCCCCC(=O)[O-].[Na+]` [C9, sodium nonanoate], the “Extracellular polysaccharide, soluble” value in assay [1] came to 8.0 ± 1.1 µg/mL. Moreover, the inhibition at 1000 µM in assay [2] was 8%.
